Assay results taken from patent US6458784B1, “Vitronectin receptor antagonists” (priority 1995, dated 2002).

By UniProt entry, the sequences of proteins in these tests, tags left out. Residues count along the entry.
UniProt P05106, 27-788: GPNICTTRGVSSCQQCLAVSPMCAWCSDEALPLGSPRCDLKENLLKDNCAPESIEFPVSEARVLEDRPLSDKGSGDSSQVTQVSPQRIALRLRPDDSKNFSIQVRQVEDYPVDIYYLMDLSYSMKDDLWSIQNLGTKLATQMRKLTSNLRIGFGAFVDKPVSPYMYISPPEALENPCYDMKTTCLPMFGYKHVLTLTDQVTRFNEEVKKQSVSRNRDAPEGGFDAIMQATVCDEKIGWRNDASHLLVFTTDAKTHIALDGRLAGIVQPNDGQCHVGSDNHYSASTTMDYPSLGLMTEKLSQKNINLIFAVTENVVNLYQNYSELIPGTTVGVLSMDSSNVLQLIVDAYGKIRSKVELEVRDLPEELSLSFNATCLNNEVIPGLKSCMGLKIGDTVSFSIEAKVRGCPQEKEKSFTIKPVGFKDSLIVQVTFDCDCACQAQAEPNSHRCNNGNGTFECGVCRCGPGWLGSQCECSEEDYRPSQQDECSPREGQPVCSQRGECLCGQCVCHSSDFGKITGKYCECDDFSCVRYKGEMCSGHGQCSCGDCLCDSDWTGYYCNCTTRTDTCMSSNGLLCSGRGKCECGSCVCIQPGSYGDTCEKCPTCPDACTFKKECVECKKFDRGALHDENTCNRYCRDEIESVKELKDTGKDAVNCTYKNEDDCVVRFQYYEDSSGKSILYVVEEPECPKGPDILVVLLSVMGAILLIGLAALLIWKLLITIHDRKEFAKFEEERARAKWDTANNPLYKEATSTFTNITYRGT
UniProt P06756, 891-1048 partner limits assumed: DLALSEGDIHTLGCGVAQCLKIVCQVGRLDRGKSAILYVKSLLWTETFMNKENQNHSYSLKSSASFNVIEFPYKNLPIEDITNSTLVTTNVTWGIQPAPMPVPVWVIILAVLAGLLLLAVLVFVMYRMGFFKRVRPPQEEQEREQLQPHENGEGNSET
UniProt P06756, 31-889 limits assumed: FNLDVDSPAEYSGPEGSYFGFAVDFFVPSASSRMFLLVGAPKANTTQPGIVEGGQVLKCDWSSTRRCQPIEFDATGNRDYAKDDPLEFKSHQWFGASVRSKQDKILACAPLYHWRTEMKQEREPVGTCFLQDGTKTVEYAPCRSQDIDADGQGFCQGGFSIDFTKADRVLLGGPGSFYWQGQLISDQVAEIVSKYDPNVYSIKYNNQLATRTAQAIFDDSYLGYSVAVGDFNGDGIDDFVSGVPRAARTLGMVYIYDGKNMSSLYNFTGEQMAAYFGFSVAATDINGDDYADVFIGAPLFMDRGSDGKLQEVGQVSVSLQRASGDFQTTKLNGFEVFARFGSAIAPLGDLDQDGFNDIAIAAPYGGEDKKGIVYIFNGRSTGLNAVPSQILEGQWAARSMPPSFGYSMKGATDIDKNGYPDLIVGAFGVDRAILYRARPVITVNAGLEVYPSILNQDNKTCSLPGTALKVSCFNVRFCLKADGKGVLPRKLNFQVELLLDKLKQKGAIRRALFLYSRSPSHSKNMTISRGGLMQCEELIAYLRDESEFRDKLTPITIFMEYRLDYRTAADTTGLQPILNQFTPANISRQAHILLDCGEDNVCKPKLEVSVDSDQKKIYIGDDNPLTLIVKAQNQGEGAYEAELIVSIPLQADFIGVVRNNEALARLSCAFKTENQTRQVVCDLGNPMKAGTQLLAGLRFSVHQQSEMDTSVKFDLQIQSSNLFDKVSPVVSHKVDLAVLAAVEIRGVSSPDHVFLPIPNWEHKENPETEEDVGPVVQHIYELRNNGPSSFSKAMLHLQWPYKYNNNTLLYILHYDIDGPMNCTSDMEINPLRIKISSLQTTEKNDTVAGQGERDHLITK
UniProt P08514, 32-887 limits assumed: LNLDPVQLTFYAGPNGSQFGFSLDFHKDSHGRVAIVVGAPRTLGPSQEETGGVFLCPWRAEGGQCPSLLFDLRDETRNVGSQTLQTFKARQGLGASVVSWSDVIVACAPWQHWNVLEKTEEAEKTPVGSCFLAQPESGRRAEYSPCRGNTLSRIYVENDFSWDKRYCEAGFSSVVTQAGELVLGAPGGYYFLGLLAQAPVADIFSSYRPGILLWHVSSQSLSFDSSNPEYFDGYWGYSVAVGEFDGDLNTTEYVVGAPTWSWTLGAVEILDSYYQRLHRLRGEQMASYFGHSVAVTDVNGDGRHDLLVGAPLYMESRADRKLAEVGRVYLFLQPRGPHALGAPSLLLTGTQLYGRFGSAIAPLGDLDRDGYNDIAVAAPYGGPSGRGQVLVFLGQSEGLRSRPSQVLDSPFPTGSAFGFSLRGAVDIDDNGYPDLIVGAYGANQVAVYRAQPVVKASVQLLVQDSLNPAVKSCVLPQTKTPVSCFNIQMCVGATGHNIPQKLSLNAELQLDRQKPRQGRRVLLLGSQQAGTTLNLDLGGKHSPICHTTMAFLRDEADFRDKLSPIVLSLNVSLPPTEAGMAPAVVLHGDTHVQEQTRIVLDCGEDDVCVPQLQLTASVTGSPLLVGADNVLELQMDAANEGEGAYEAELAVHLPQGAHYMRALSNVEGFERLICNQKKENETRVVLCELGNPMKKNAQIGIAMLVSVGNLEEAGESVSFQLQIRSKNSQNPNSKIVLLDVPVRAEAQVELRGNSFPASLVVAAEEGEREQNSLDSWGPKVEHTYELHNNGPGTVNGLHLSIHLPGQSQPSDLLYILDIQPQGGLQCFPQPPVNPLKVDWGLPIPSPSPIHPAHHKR
UniProt P08514, 891-1039 partner limits assumed: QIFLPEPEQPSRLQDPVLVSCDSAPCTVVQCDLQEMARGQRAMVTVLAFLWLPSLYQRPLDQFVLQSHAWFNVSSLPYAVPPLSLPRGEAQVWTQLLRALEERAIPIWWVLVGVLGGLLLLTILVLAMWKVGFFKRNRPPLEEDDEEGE

What was measured:
[1] = target: T1, αvβ3 (vitronectin receptor) (Homo sapiens, UniProt P05106+P06756); test: Solid-phase [3H]-SK&F-107260 binding to αvβ3 (inhibition of vitronectin binding)
T1 construct: Human placenta or human platelet αvβ3 (0.1-0.3 mg/mL) in buffer T; from tissue; host or cells: human placenta or human platelets
Procedure: Inhibition of Vitronectin Binding
0.1-0.2 μg of αvβ3 was added per well. The plates were incubated overnight at 4° C. […] Following incubation the wells were aspirated completely and washed twice with 0.2 mL buffer A.
This solution is then diluted to the required final compound concentration.
The plates were incubated for 1 hr at room temperature. Following incubation the wells were aspirated completely and washed once with 0.2 mL of ice cold buffer A in a well-to-well fashion.

[2] = target: GPIIb-IIIa (fibrinogen receptor, αIIbβ3) (Homo sapiens, UniProt P05106+P08514); test: Competitive binding to GPIIb-IIIa with [3H]-SK&F-107260 (inhibition of RGD-mediated GPIIb-IIIa binding)

Ki [1]	Ki [2]	SMILES
0.65 µM	> 50 µM	CN1Cc2cc(C(=O)Nc3cccc(N)n3)ccc2CC(CC(=O)O)C1=O (racemic) [Example 2, (±)-8-[[(6-amino-2-pyridinyl)amino]carbonyl]-2-methyl-3-oxo-2,3,4,5-tetrahydro-1H-2-benzazepine-4-acetic acid]
15.1 µM	> 100 µM	CC(=O)N1c2ccc(C(=O)Nc3cccc(N)n3)cc2CN(C)C(=O)C1CC(=O)O (racemic) [Example 4, (±)-1-Acetyl-7-[[(6-amino-2-pyridinyl)amino]carbonyl]-4-methyl-3-oxo-2,3,4,5-tetrahydro-1H-1,4-benzodiazepine-2-acetic acid]
